Like-named read-outs stand apart in the source and are kept apart here.
Legend:
UNC-49B-PS7 = UNC-49B-PS7 (Caenorhabditis elegans, UniProt G5ECD3, I262F/I265S/M258L/N259Q/N305R/S264A/T257F); assay type: cell-based, C. elegans; details: read-out: PS IC50, at EC50 GABA
Procedure: (§1) Electrophysiology: Plasmids containing wild-type and mutagenized GABAA receptor subunits were linearized and transcribed in vitro using T3 RNA polymerase (mMessage mMachine T3 kit, Ambion, Austin Tex.). UNC-49B mRNA was injected into Xenopus laevis oocytes at 0.5 μg/μl either alone, or in a mixture with 0.5 μg/μl UNC-49C. […] The injection volume ranged between 27.6 nl to 50.6 nl. […] Cells were voltage clamped at −60 mV. All recordings were performed at room temperature.

By UniProt entry, the sequences of proteins in these tests, tags left out.
UniProt G5EE10, entry or part of it: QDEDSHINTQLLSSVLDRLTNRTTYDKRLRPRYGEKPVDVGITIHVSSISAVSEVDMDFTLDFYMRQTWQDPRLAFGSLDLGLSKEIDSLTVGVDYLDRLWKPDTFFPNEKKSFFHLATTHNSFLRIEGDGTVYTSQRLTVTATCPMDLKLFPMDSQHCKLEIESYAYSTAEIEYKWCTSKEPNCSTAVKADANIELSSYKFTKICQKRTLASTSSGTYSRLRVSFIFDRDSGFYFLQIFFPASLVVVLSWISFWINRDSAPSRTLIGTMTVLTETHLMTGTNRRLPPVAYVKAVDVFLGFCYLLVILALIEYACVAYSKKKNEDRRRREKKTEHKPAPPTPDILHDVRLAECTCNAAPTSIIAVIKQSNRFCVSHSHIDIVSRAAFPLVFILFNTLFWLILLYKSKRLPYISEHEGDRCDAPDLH

X(I265S, Q259N) = X(I265S, Q259N) (Caenorhabditis elegans, UniProt G5ECD3, I262F/I265S/M258L/N305R/S264A/T257F/V261F); assay type: cell-based, C. elegans; details: read-out: PS IC50, at EC50 GABA
Procedure: as §1

linker chimera = linker chimera (Caenorhabditis elegans, UniProt G5ECD3, N305R, form not given); assay type: cell-based, C. elegans; details: read-out: PS IC50, at EC50 GABA
Procedure: as §1

N305R = N305R (Caenorhabditis elegans, UniProt G5ECD3, N305R); assay type: cell-based, C. elegans; details: read-out: PS IC50, at EC50 GABA
Procedure: as §1

X(I270L) = X(I270L) (Caenorhabditis elegans, UniProt G5ECD3, I262F/I270L/M258L/N259Q/N305R/S264A/T257F/V261F); assay type: cell-based, C. elegans; details: read-out: PS IC50, at EC50 GABA
Procedure: as §1

UNC-49B homomer = UNC-49B homomer (Caenorhabditis elegans, UniProt G5ECD3); assay type: cell-based, C. elegans; details: read-out: PS IC50, at EC50 GABA, estimated by extrapolating the PS dose-response curve
Procedure: as §1

XZ chimera = XZ chimera (Caenorhabditis elegans, UniProt G5ECD3, A281S/E280D/I262F/L277I/M258L/N259Q/N305R/S264A/S282A/T257F/V261F); assay type: cell-based, C. elegans; details: read-out: PS IC50, at EC50 GABA
Procedure: as §1

X(T269V) = X(T269V) (Caenorhabditis elegans, UniProt G5ECD3, I262F/M258L/N259Q/N305R/S264A/T257F/T269V/V261F); assay type: cell-based, C. elegans; details: read-out: PS IC50, at EC50 GABA
Procedure: as §1

X(I265S) = X(I265S) (Caenorhabditis elegans, UniProt G5ECD3, I262F/I265S/M258L/N259Q/N305R/S264A/T257F/V261F); assay type: cell-based, C. elegans; details: read-out: PS IC50, at EC50 GABA
Procedure: as §1

YZ chimera = YZ chimera (Caenorhabditis elegans, UniProt G5ECD3, A281S/E280D/I265S/I267V/I270L/L277I/N259Q/N305R/S282A/T269V/V261F/V273I); assay type: cell-based, C. elegans; details: read-out: PS IC50, at EC50 GABA
Procedure: as §1

Z chimera = Z chimera (Caenorhabditis elegans, UniProt G5ECD3, A281S/E280D/L277I/N259Q/N305R/S282A/V261F); assay type: cell-based, C. elegans; details: read-out: PS IC50, at EC50 GABA
Procedure: as §1

X(V273I) = X(V273I) (Caenorhabditis elegans, UniProt G5ECD3, I262F/M258L/N259Q/N305R/S264A/T257F/V261F/V273I); assay type: cell-based, C. elegans; details: read-out: PS IC50, at EC50 GABA
Procedure: as §1

XY chimera = XY chimera (Caenorhabditis elegans, UniProt G5ECD3, I262F/I265S/I267V/I270L/M258L/N259Q/N305R/S264A/T257F/T269V/V261F/V273I); assay type: cell-based, C. elegans; details: read-out: PS IC50, at EC50 GABA
Procedure: as §1

Y chimera = Y chimera (Caenorhabditis elegans, UniProt G5ECD3, I265S/I267V/I270L/N259Q/N305R/T269V/V261F/V273I); assay type: cell-based, C. elegans; details: read-out: PS IC50, at EC50 GABA
Procedure: as §1

X(I267V) = X(I267V) (Caenorhabditis elegans, UniProt G5ECD3, I262F/I267V/M258L/N259Q/N305R/S264A/T257F/V261F); assay type: cell-based, C. elegans; details: at EC50 GABA, read-out: PS IC50
Procedure: as §1

X chimera = X chimera (Caenorhabditis elegans, UniProt G5ECD3, I262F/M258L/N259Q/N305R/S264A/T257F/V261F); assay type: cell-based, C. elegans; details: read-out: PS IC50, at EC50 GABA
Procedure: as §1

Y(M258L/S264A) = target: T1, Y(M258L/S264A) (Caenorhabditis elegans, UniProt G5ECD3, I265S/I267V/I270L/M258L/N259Q/N305R/S264A/T269V/V261F/V273I); assay type: cell-based, C. elegans
T1 sequence (G5ECD3 23-506 M258L/N259Q/V261F/S264A/I265S/I267V/T269V/I270L/V273I/N305R): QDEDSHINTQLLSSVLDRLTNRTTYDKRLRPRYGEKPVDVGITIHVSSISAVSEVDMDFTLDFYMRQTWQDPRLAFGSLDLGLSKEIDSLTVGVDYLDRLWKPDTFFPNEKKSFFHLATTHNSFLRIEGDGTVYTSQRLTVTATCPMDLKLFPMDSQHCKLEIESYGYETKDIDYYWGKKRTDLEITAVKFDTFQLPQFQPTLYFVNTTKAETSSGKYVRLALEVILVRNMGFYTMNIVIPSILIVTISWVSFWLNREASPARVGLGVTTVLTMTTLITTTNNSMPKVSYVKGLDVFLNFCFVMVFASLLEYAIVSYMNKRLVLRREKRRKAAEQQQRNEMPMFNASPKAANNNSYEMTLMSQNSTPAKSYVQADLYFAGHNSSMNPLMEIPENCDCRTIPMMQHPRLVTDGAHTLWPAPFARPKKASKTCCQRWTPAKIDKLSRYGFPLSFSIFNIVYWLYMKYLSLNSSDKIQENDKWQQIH
Procedure: as §1
(§2) Error bars in the figures are standard error of the mean. All drugs were obtained from Sigma (St. Louis). […] Picrotoxin was prepared as a 100 mM stock in DMSO.
(§3) Important residues in the X segment were tested by substituting UNC-49C residues into the Y chimera. […] These divergent X segment residues were tested by mutating them from UNC-49B to UNC-49C amino acids in the Y chimera background.

Y(M258L) = target: T2, Y(M258L) (Caenorhabditis elegans, UniProt G5ECD3, I265S/I267V/I270L/M258L/N259Q/N305R/T269V/V261F/V273I); assay type: cell-based, C. elegans
T2 sequence (G5ECD3 23-506 M258L/N259Q/V261F/I265S/I267V/T269V/I270L/V273I/N305R): T1 sequence (G5ECD3 23-506 M258L/N259Q/V261F/S264A/I265S/I267V/T269V/I270L/V273I/N305R)
Procedure: as §1, §2, §3

Y(T257F) = Y(T257F) (Caenorhabditis elegans, UniProt G5ECD3, I265S/I267V/I270L/N259Q/N305R/T257F/T269V/V261F/V273I); assay type: cell-based, C. elegans; details: read-out: PS IC50, at EC50 GABA
Procedure: as §1, §3

Y(T257F/M258L) = Y(T257F/M258L) (Caenorhabditis elegans, UniProt G5ECD3, I265S/I267V/I270L/M258L/N259Q/N305R/T257F/T269V/V261F/V273I); assay type: cell-based, C. elegans; details: read-out: PS IC50, at EC50 GABA
Procedure: as §1, §3

Y(S264A) = Y(S264A) (Caenorhabditis elegans, UniProt G5ECD3, I265S/I267V/I270L/N259Q/N305R/S264A/T269V/V261F/V273I); assay type: cell-based, C. elegans; details: read-out: PS IC50, at EC50 GABA
Procedure: as §1, §3

Y(I262F/S264A) = Y(I262F/S264A) (Caenorhabditis elegans, UniProt G5ECD3, I262F/I265S/I267V/I270L/N259Q/N305R/S264A/T269V/V261F/V273I); assay type: cell-based, C. elegans; details: read-out: PS IC50, at EC50 GABA
Procedure: as §1, §3

Y(T257F/S264A) = Y(T257F/S264A) (Caenorhabditis elegans, UniProt G5ECD3, I265S/I267V/I270L/N259Q/N305R/S264A/T257F/T269V/V261F/V273I); assay type: cell-based, C. elegans; details: read-out: PS IC50, at EC50 GABA
Procedure: as §1, §3

Y(T257F/M258L/S264A) = Y(T257F/M258L/S264A) (Caenorhabditis elegans, UniProt G5ECD3, I265S/I267V/I270L/M258L/N259Q/N305R/S264A/T257F/T269V/V261F/V273I); assay type: cell-based, C. elegans; details: read-out: PS IC50, at EC50 GABA
Procedure: as §1, §3

QF-R = QF-R (Caenorhabditis elegans, UniProt G5ECD3, N259Q/N305R/V261F); assay type: cell-based, C. elegans; details: read-out: PS IC50, at EC50 GABA
Procedure: as §1
The conserved residues were tested in the UNC-49C M1 domain in a similar way. […] To test the importance of these conserved residues, they were substituted into an UNC-49B subunit with the linker mutation N305R to create the ‘QF-R’ subunit (FIG. 3c).

UNC-49B/C heteromer = UNC-49B/C heteromer (Caenorhabditis elegans, UniProt G5ECD3+G5EE10); assay type: cell-based; details: read-out: PS IC50, at EC50 GABA
Procedure: as §1

Substance: pregnenolone sulfate [PS]
- IC50 (UNC-49B-PS7): 3.3 ± 0.1 µM
- IC50 (X(I265S, Q259N)): 7.7 ± 0.3 µM
- IC50 (linker chimera): 44.9 ± 7 µM
- IC50 (N305R): 51 ± 4.5 µM
- IC50 (X(I270L)): 11.5 ± 0.5 µM
- IC50 (UNC-49B homomer): 191 µM
- IC50 (XZ chimera): 14.4 ± 1.7 µM
- IC50 (X(T269V)): 12.4 ± 1.9 µM
- IC50 (X(I265S)): 3.43 ± 0.6 µM
- IC50 (YZ chimera): 84.4 ± 13.7 µM
- IC50 (Z chimera): 9.3 ± 0.6 µM
- IC50 (X(V273I)): 11.6 ± 0.5 µM
- IC50 (XY chimera): 3.7 ± 0.5 µM
- IC50 (Y chimera): 90.8 ± 0.5 µM
- IC50 (X(I267V)): 17.9 ± 1.4 µM
- IC50 (X chimera): 12.8 ± 0.3 µM
- EC50 (Y(M258L/S264A); read-out: EC50, half maximal enhancing concentration of PS (biphasic fit), M258L/S264A mutant, median of 1000 bootstrap trials): 2.4 µM
- IC50 (Y(M258L/S264A); read-out: IC50, half maximal inhibitory concentration of PS (biphasic fit), M258L/S264A mutant, median of 1000 bootstrap trials): 52.6 µM
- IC50 (Y(M258L/S264A); read-out: PS IC50, Y(M258L/S264A), at EC50 GABA, biphasic): 100 µM
- EC50 (Y(M258L); read-out: EC50, half maximal enhancing concentration of PS (biphasic fit), M258L mutant, median of 1000 bootstrap trials): 3.95 µM
- IC50 (Y(M258L); read-out: IC50, half maximal inhibitory concentration of PS (biphasic fit), M258L mutant, median of 1000 bootstrap trials): 45.3 µM
- IC50 (Y(M258L); read-out: PS IC50, Y(M258L), at EC50 GABA, biphasic): 100 µM
- IC50 (Y(T257F)): 18.6 ± 0.9 µM
- IC50 (Y(T257F/M258L)): 41.5 ± 3 µM
- IC50 (Y(S264A)): 88.7 ± 2.9 µM
- IC50 (Y(I262F/S264A)): 97.6 ± 1.9 µM
- IC50 (Y(T257F/S264A)): 10.6 ± 1.9 µM
- IC50 (Y(T257F/M258L/S264A)): 44.4 ± 4.8 µM
- IC50 (QF-R): 24.7 ± 4.7 µM
- IC50 (UNC-49B/C heteromer): 2.3 µM

Reference: patent US8183001B2 (priority 2006, dated 2012)
